The chains behind the UniProt entries cited, without tags or fusion partners. Residues count along the entry.
UniProt P05067, 672-713 limits assumed: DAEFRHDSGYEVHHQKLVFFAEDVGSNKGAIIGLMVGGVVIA

In publication PMC6144582, “The Binding of BF-227-Like Benzoxazoles to Human α-Synuclein and Amyloid β Peptide Fibrils” (Molecular Imaging, 2018):

Experiments:
[1] = biological target: Aβ1-42 fibrils (Homo sapiens, UniProt P05067); assay: Saturation binding of [3H]BF-227 to Aβ1-42 fibrils (filtration); conditions: tested as the radiolabelled form; for Bmax, [3H]BF-227 binding to Aβ fibrils (mean): pmoles tracer per nmoles fibril (as monomer), mean and SD, n=3
[2] = biological target: human α-Syn fibrils (Homo sapiens, UniProt P37840); assay: Saturation binding of [3H]BF-227 to α-Syn fibrils (filtration); conditions: tested as the radiolabelled form; for Bmax, [3H]BF-227 binding to α-Syn fibrils (mean): pmoles tracer per nmoles fibril (as monomer), b21 prints pmole/nmole
[3] = Table S1, individual values, listed as [3H]BF-227

For `CN(C)c1ncc(/C=C/c2nc3ccc(OCCF)cc3o2)s1`, the “Bmax (pmol/nmol), Aβ1-42 fibrils, individual experiments” value [1, 3] was 21.3 pmol/nmol and 20.7 pmol/nmol and 16.3 pmol/nmol, the “Bmax, [3H]BF-227 binding to Aβ fibrils (mean)” value [1] was 19.4 (2.7) pmol/nmol and the “Bmax, [3H]BF-227 binding to Aβ fibrils (mean)” value ([1]; listed as [3H]BF-227) was 19.4 ± 2.7 pmol/nmol. The Kd ([1]; read-out: KD (nM), Aβ1-42 fibrils, individual experiments, Table S1, individual values, listed as [3H]BF-227) was 18.5 nM and 13.2 nM and 15.4 nM, the “Bmax (pmol/nmol), α-Syn fibrils, individual experiments” value [2, 3] was 13.5 pmol/nmol and 12.0 pmol/nmol and the “Bmax, [3H]BF-227 binding to α-Syn fibrils (mean)” value ([2]; mean and SD, n=2) was 12.7 (1.1) pmol/nmol. For the same compound, the “Bmax, [3H]BF-227 binding to α-Syn fibrils (mean)” value ([2]; mean and SD, n=2, listed as [3H]BF-227) was 12.7 ± 1.1 pmol/nmol, the Kd ([2]; read-out: KD (nM), α-Syn fibrils, individual experiments, Table S1, individual values, listed as [3H]BF-227) was 47.7 nM and 43.8 nM and the Kd ([2]; read-out: KD, [3H]BF-227 binding to α-Syn fibrils (mean), saturation binding, single-site model, mean and SD, n=2) was 46 nM.

Values joined by “and” are separate entries in the source; they are usually repeats but may differ in a detail not shown here. Equal values may be shown once. Read-outs that look alike come from different tables or passages of the source.
